Values quoted from earlier work as cited in patent US9061040B2, “Combination therapy for breast cancer” (priority 2011, dated 2015).

System: cytotoxic lymphocytes and natural killer cells
Conditions: 200 μg selenium per day

SMILES: [Se] [selenium]
- increase in cytotoxic-lymphocyte-mediated tumor cytotoxicity: 118%
- increase in natural-killer-cell activity: 82%
